Among the data in ChEMBL document CHEMBL1135173, “Discovery of substituted 3,4-diphenyl-thiazoles as a novel class of monoamine transporter inhibitors through 3-D pharmacophore search using a new pharmacophore model derived from mazindol” (Bioorg Med Chem Lett, 2002) are Ki values, retold here.

Sequences of proteins named here, by UniProt entry; tags and fusion partners are left off.
UniProt P31652, whole entry: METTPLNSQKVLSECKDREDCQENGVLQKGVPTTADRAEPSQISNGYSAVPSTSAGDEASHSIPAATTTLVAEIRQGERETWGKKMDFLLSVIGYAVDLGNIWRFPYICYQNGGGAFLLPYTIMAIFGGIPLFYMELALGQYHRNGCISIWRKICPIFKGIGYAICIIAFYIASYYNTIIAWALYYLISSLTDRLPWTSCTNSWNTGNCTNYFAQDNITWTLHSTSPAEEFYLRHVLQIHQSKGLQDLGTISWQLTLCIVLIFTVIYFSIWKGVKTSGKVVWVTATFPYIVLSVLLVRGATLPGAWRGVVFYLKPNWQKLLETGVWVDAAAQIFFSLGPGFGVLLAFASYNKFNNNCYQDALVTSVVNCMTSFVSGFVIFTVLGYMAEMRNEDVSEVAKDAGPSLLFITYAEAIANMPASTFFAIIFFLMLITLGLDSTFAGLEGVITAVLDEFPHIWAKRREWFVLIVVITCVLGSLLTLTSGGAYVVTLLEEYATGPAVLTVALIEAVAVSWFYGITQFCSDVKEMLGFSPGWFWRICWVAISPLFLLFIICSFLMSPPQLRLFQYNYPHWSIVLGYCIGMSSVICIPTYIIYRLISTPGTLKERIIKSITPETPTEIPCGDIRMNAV

This test has as its target Sodium-dependent serotonin transporter (Rattus norvegicus, UniProt P31652). As to the kind of experiment: Compound was tested for the inhibition of serotonin [3H]SER reuptake into rat forebrain membranes. It counts as cell membranes, Membrane.

Each structure is given as a SMILES string.

As a reminder, the Ki is a dissociation constant, usually derived from enzyme kinetics or from competition with a known ligand. A higher Ki goes with weaker binding. Consider `COC(=O)[C@@H]1C2CCC(C[C@@H]1C(=O)Oc1ccccc1)N2C` (stereo partly specified), for which the affinity, expressed as Ki, was 155 nM.
